# Assay results reported in patent publication US20130123254A1, “PHARMACEUTICALLY ACCEPTABLE MGLUR5 POSITIVE ALLOSTERIC MODULATORS AND THEIR METHODS OF IDENTIFICATION” (priority 2011, published 2013).
# Experiment: HTD/LTD dose, tolerability in rat
# Settings: observation at the HTD/LTD dose
smiles,measurement,value
CN1C(=O)N(c2ccc(C#Cc3ccccc3)cn2)CC1(C)C [Example 14],HTD/LTD Dose (rat) (observation),seizures
